## Yeast mating assay 2: variants of the scFv Ab-91

Data: MIT Lincoln Laboratory AlphaSeq set, Engelhart et al. 2022, doi:10.1038/s41597-022-01779-4, as distributed in FLAb.

Antigen: PDVDLGDISGINAS, a 14-residue peptide of the SARS-CoV-2 spike HR2 region.

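The parent was found by panning a naive human phage display library on the peptide. The library (AAYL51) carries one to three amino acid substitutions per variant, with no insertions or deletions. Affinity was read by AlphaSeq, a pooled yeast mating assay with surface-displayed partners. Mating (16 h, 30 °C) was followed by selection of diploids and sequencing of their barcodes. A regression on co-assayed BCL2-family reference pairs converts the normalised counts of each replicate to an apparent Kd. Each pool was mated in three replicate cultures.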

Parent scFv Ab-91: VL joined to VH by a 15-residue (Gly4Ser)3 linker. Changes lie in the heavy chain CDRs alone.
VL: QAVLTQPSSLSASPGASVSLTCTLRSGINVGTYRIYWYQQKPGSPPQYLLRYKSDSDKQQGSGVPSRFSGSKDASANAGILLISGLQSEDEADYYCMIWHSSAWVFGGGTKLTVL
VH: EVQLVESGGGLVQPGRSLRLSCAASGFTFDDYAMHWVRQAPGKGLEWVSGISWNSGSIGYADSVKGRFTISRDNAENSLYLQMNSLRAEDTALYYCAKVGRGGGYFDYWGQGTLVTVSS

Positions count from residue 1 of the parent VH; M34K puts K in place of M. Scale: log10 of Kd in nM, estimated from mating counts; low values are strong binders. Averages over replicates are reported, and they cover detected replicates only. "ND" marks a missing value. The strain was present, yet no cells mated with the target were sequenced in that replicate, which points to weak or no binding. Nonspecific signal, from three strains lacking the peptide, appeared in 21% of pairings of library AAYL51, centred on 4.54 (5% of these signals below 3.26); values are not corrected for it. Also given: how often the same scFv was detected with the empty control strains, with their mean in brackets.

changes | replicates, log10 nM | mean, log10 nM | signal with controls
M34K S52I | ND / 4.18 / ND | 4.18 | 2/9 (4.30)
N54G V99K F106C | ND / ND / ND | ND | 2/9 (3.94)
A33L H35Y S52W | ND / ND / ND | ND | 0/9
D30L N54R D62F | ND / ND / ND | ND | 0/9
H35P I58P G102E | ND / 5.02 / ND | 5.02 | 0/9
F29W G104P D107G | ND / 5.81 / ND | 5.81 | 1/9 (4.36)
A61C K65N D107T | ND / 5.70 / ND | 5.70 | 2/9 (3.84)
Y32F S52Y | ND / ND / ND | ND | 0/9
D31T S52M G102Y | 4.08 / ND / ND | 4.08 | 0/9
I51L I58L Y60R | 5.27 / 5.96 / ND | 5.61 | 5/9 (5.12)
D31E M34K S55W | ND / ND / ND | ND | 0/9
S52C G56M S63G | ND / ND / ND | ND | 2/9 (3.98)
A33C H35N D62C | ND / 4.83 / ND | 4.83 | 5/9 (4.15)
I51R S57H G100S | 4.30 / ND / ND | 4.30 | 5/9 (5.13)
D30A Y60E G104P | 2.49 / 2.64 / 2.18 | 2.43 | 3/9 (4.49)
S52M G56F | 5.16 / ND / ND | 5.16 | 1/9 (5.15)
F29P N54P S55G | 4.29 / ND / ND | 4.29 | 3/9 (4.54)
D31K W53Q G102C | 4.35 / 3.23 / 4.42 | 4.00 | 1/9 (4.64)
W53E K65M | 5.63 / ND / ND | 5.63 | 2/9 (3.78)
D31I W53L D62R | 3.78 / 3.51 / 2.32 | 3.20 | 2/9 (3.80)
Y32N M34V Y108F | ND / ND / ND | ND | 1/9 (4.64)
V99D Y108H | ND / ND / ND | ND | 3/9 (4.56)
T28K S52R G59C | ND / 5.19 / ND | 5.19 | 1/9 (3.94)
G59F G100S F106K | ND / ND / ND | ND | 0/9
Y60W V99S Y108W | ND / ND / 4.65 | 4.65 | 1/9 (5.45)
G100D | ND / ND / ND | ND | 2/9 (3.51)
D30F S63F G100Y | ND / ND / ND | ND | 1/9 (5.62)
N54V I58A V99R | 2.62 / ND / ND | 2.62 | 1/9 (3.93)
D31T W53L | 4.99 / ND / ND | 4.99 | 0/9
S57G S63Y | 4.44 / 4.79 / 5.12 | 4.78 | 3/9 (4.58)
F27C M34G G100Y | ND / ND / ND | ND | 0/9
A33H M34V S55C | ND / ND / ND | ND | 1/9 (4.16)
V99A G102T Y105T | ND / ND / ND | ND | 0/9
G26L D30L G50A | ND / 4.74 / ND | 4.74 | 4/9 (3.97)
T28G S55C R101A | ND / ND / ND | ND | 1/9 (4.36)
S55G S63C G100N | ND / 5.68 / ND | 5.68 | 2/9 (3.42)
I58G G100A F106H | ND / ND / 3.74 | 3.74 | 1/9 (3.51)
S57F V64S Y108V | 2.72 / 2.94 / 2.52 | 2.73 | 0/9
S52P A61Q Y105A | ND / ND / ND | ND | 1/9 (3.63)
T28N S63F K65P | 4.59 / ND / 5.33 | 4.96 | 2/9 (5.86)
T28Y H35Q W53H | ND / ND / ND | ND | 0/9
D31Q I51R K65M | 3.37 / 4.34 / ND | 3.86 | 2/9 (3.60)
Y32G S55E G102A | 4.58 / 4.99 / 5.08 | 4.88 | 5/9 (4.88)
F29G W53G V99M | 4.08 / 3.68 / ND | 3.88 | 4/9 (4.29)
T28Y Y105D | ND / ND / ND | ND | 0/9
G56K K65E Y108M | 1.41 / 1.29 / 0.76 | 1.15 | 0/9
W53S S57N F106Q | ND / 5.77 / 3.99 | 4.88 | 3/9 (3.83)
S55P A61L | 3.77 / ND / ND | 3.77 | 4/9 (4.39)
Y60L K65V D107S | ND / 3.81 / ND | 3.81 | 1/9 (4.80)
G59H A61F K65R | 5.75 / 4.89 / ND | 5.32 | 4/9 (4.85)
S57V A61E G102F | ND / ND / ND | ND | 0/9
A33N S55P Y60R | ND / ND / ND | ND | 1/9 (3.59)

The opening 7 entries, copied out:

changes | replicates, log10 nM | mean, log10 nM | signal with controls
M34K S52I | ND / 4.18 / ND | 4.18 | 2/9 (4.30)
N54G V99K F106C | ND / ND / ND | ND | 2/9 (3.94)
A33L H35Y S52W | ND / ND / ND | ND | 0/9
D30L N54R D62F | ND / ND / ND | ND | 0/9
H35P I58P G102E | ND / 5.02 / ND | 5.02 | 0/9
F29W G104P D107G | ND / 5.81 / ND | 5.81 | 1/9 (4.36)
A61C K65N D107T | ND / 5.70 / ND | 5.70 | 2/9 (3.84)